The text below walks through data of BindingDB's records for doi:10.7270/Q27P8WSS (Srmlsc, 2007).

This assay deals with T1, Mevalonate kinase (Streptococcus pneumoniae serotype 2 (strain D39 / NCTC 7466), UniProt A0A0H2ZQX9).
T1 sequence (A0A0H2ZQX9 whole entry): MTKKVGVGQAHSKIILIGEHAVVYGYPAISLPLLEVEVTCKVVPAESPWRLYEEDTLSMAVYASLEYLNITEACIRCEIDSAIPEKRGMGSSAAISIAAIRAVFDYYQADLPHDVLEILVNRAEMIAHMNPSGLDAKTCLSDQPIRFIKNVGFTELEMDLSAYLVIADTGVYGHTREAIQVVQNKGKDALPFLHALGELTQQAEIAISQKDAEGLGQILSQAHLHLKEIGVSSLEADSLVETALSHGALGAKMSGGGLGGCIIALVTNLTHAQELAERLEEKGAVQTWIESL

`O=c1c2ccccc2[se]n1-c1ccccc1` [2-Phenyl-benzo[d]isoselenazol-3-one] came in with an IC50 of 101 µM.
